The test system of assay [1] is B. thetaiotaomicron. In words: microbe, parasite or virus in culture. It is filed as cell-based. Conditions: Bacteroides thetaiotaomicron, ATCC29741, read-out: MIC, broth microdilution.
The test system of assay [2] is B. thetaiotaomicron. The assay can be described thus: microbe, parasite or virus in culture. The conditions noted are these: Bacteroides thetaiotaomicron, ATCC29741, read-out: MIC, agar dilution. The class given is cell-based. (In agar dilution, organisms are placed on agar that contains the substance at set levels.)

In brackets after ≈: the same amount, converted by molar mass. Read-outs that look alike come from different tables or passages of the source.

As for `CC(=O)NC[C@H]1CN(c2ccc(N3CCOCC3)c(F)c2)C(=O)O1` [Linezolid, linezolid], the MIC with B. thetaiotaomicron [1] and in the assay on B. thetaiotaomicron [2] was 4 µg/mL (≈ 11.9 µM) throughout.
Regarding `CCC[C@@H]1C[C@@H](C(=O)N[C@@H]([C@H]2O[C@H](SC)[C@H](O)[C@@H](O)[C@H]2O)[C@H](C)Cl)N(C)C1` [Clindamycin, clindamycin], the MIC in the assay on B. thetaiotaomicron [1] and in the assay with B. thetaiotaomicron [2] was 8 µg/mL (≈ 18.8 µM) in each case.
